Screening data as filed in PubChem BioAssay.
C2C12 statin – suppressors of statin myotoxicity in C2C12 myotubes, primary screen, cell-based, single point, plate reader; C2C12 myotubes + simvastatin, ATP luminescence, 48 h; scaled: DMSO 0, geranylgeraniol control 100; rescue of ATP level, % at 7.49 µM; 330,000 compounds, 0.78% hits; AID 602340, 2012;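 active = mean ATP rescue above about 67%, or every replicate alone reaching that limit, limit read from the data, passing the limit was not always enough; inconclusive = no clear call, values can overlap the other calls; inactive = mean under the limit and some replicate under it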;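 note: myotubes were challenged with 10 µM simvastatin during compound exposure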
Yeast UUG start – modulators of start codon recognition fidelity in yeast. activity score, % at 18.7 µM. S. cerevisiae UUG-firefly luciferase reporter, luminescence/redox ratio. 350,000 compounds, 0.13% hits;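 active means replicate mean at a twofold rise or more, about +100% in these data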;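 further: firefly luciferase made from a UUG start codon reports start codon fidelity; reporter light over untreated wells divided by growth signal over untreated wells; some hits fall short of that in this replicate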
E-sel inducer – E-selectin induction in HUVECs, primary screen, imaging, HUVEC, immunofluorescence imaging, single point | activation, % at 7.58 µM | 260,000 compounds, 0.37% hits | normalized: neutral wells 0, TNF-alpha wells 100 | P16581 | AID 686992, 2013;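 active = mean E-selectin-positive cell signal at least 10% of the positive control, reached in at least 60% of replicates, without over 20% cell loss; inconclusive = no rule given, readout overlaps actives, possibly toxicity-flagged; inactive = the rest, including those meeting only one limit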
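Read-out basis: % PE-positive cells; Test system: HUVEC primary endothelial cells; Technique: immunofluorescence imaging; Dosing: single-point compound dose.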
PGC1a acetyl inh – inhibitors of PGC1a acetylation signal, primary screen, cell-based, U2OS, AlphaScreen, inhibitor mode; AlphaScreen anti-acetyl-lysine; with virally co-expressed GCN5 acetyltransferase; inhibition, % at 15.6 µM; 350,000 compounds, 0.17% hits; AID 651687, 2012;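 active = every replicate shows inhibition of at least 40%; inconclusive = mean inhibition at least 40% but some replicate below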;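 note: 0% = neutral control wells and 100% = positive control wells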
esBAF inh – Bmi1 luciferase reporter increase in mESCs, primary screen, esBAF inhibitor project, mouse ES cells, Bmi1 luciferase knock-in, single point | 24 h; 100% = twice the neutral-well signal | reporter increase, % at 12.5 µM | 350,000 compounds, 2% hits | AID 602393, 2012; in the data active = activation above about 40%; inconclusive = no clear call, values can overlap the other calls;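 note: 0% = median of the plate's neutral control wells and 100% = double that signal; a rise in the Bmi1 reporter signal indicates esBAF inhibition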
PglD DTNB – C. jejuni PglD acetyltransferase inhibitors, primary screen, biochemical, DTNB colorimetric, single point; purified PglD enzyme, DTNB colorimetric CoA detection; 360,000 compounds, 0.098% hits; inhibition, % at 12.5 µM; UDP-N-acetylbacillosamine N-acetyltransferase PglD (Campylobacter jejuni); in the data active = inhibition above about 16%, passing the limit was not always enough; inconclusive = no clear call, values can overlap the other calls
The depositor's hits bear a star; ? = inconclusive; / = not tested or not shown. A selection: hits, their analogues and other compounds. The true share with any hit is near 2.8%.

| SMILES | esBAF inh | PglD DTNB | E-sel inducer | Yeast UUG start | PGC1a acetyl inh | C2C12 statin |
| --- | --- | --- | --- | --- | --- | --- |
| O=C1NC2=C(CCc3ccccc32)C(c2ccc(Br)cc2)N1 (configuration not stated) | 2.1 | 1.9 | / | 5.1 | -7.1 | -10.5 |
| CSc1ccccc1OCc1cc(C(=O)N[C@H]2CCCCNC2=O)no1 | 65.9* | -2.1 | / | 12.9 | / | 2.5 |
| CSc1ccccc1OCc1cc(C(=O)NC(C)c2cnn(C)c2)no1 (configuration not stated) | 53.9* | -2.7 | 0.1 | -12.0 | / | 1.2 |
| CSc1ccccc1OCc1cc(C(=O)NC(C)CCn2cccn2)no1 (configuration not stated) | / | -0.4 | 0.0 | -1.8 | -10.9 | / |
| CCC(=O)N1CCCCN2[C@H](CO)[C@H](c3ccc(/C=C/c4ccccc4)cc3)[C@@H]2C1 | / | 2.0 | -0.3 | 1.9 | 7.0 | / |
| CC(=O)c1ccc(-c2nc3ccccc3n2C)o1 | 54.7* | 4.7 | / | -21.9 | 10.4 | -12.9 |
| C[C@H](NC(=O)C[C@H]1CC[C@@H]2[C@H](COC[C@@H](O)CN2C(=O)Nc2cc(Cl)cc(Cl)c2)O1)c1ccccc1 | 6.2 | 2.6 | 0.8 | -7.2 | 1.3 | -25.2 |
| COc1ccccc1C(=O)COC(=O)c1cccs1 | 80.9* | -1.1 | -0.2 | 0.6 | 6.3 | -5.8 |
| COc1ccccc1C(=O)COC(=O)C1(C)CC1(Cl)Cl (configuration not stated) | 60.2* | -0.8 | -0.5 | -14.8 | -4.2 | -3.2 |
| Cc1ccccc1NC(=O)COC(=O)C1(C)CC1(Cl)Cl (configuration not stated) | / | / | / | / | -6.0 | / |
| CC(=O)Nc1ccc(C(=O)COC(=O)c2cccs2)c(F)c1 | 68.4* | 9.0 | 25.6 | -38.3 | 4.7 | 5.0 |
| COc1cccc(C(=O)COC(=O)c2cccs2)c1 | 30.2 | 2.9 | 0.0 | -67.9 | / | 9.9 |
| COc1ccc(C(=O)COC(=O)c2cccs2)cc1 | 67.8* | 3.1 | 0.0 | -88.9 | 0.5 | -4.4 |
| COc1ccccc1C(=O)COC(=O)c1ccccc1O | ? | -2.0 | / | -7.5 | 7.4 | -5.6 |
| CCOc1ccc(C(=O)c2cccs2)cc1 | 47.7* | -2.5 | / | -7.1 | 44.8 | 1.1 |
| COc1cc(CO)ccc1OCc1ccc(Cl)nc1 | 57.0* | -8.4 | / | -11.2 | 0.5 | -0.9 |
| C[C@@H]1CCCCO[C@H](CN(C)C)[C@H](C)CN([C@@H](C)CO)C(=O)c2cc(NC(=O)C3CCCCC3)ccc2O1 | -0.6 | / | -0.2 | / | -11.3 | -20.0 |
| CCOc1cc(/C=C2\C(=O)N(c3ccc(C(N)=O)cc3)N=C2C)ccc1OC(=O)c1cccs1 | -3.6 | 0.0 | / | -1.0 | 9.0 | 103.2* |
| Cc1ccc(NC(=O)c2ccc3nc[nH]c3c2)c(O)c1 | 50.5* | -1.4 | / | -21.8 | 4.7 | 3.3 |
| O=C1CC(c2cccs2)c2cc3c(cc2N1)OCO3 (configuration not stated) | 0.0 | -1.1 | 2.1 | -13.7 | 4.9 | 116.1* |
| O=C1CC(c2ccncc2)c2cc3c(cc2N1)OCCO3 (configuration not stated) | 1.4 | 6.0 | / | -7.6 | 4.7 | 125.7* |
| COc1cc2c(cc1OC)C(c1cccs1)CC(=O)N2 (configuration not stated) | 3.2 | -2.9 | / | -17.1 | 12.4 | 12.3 |
| CO[C@@H]1CN(C)C(=O)c2ccc(NS(=O)(=O)c3ccccc3)cc2OC[C@H](C)N(C(=O)NC(C)C)C[C@H]1C | 2.8 | 6.5 | -0.3 | 7.3 | -0.3 | 0.3 |
| O=C(C[C@H]1C[C@H]2c3cc(NC(=O)c4cccnc4)ccc3O[C@H]2[C@H](CO)O1)NCc1ccccn1 | -1.5 | -1.5 | -0.6 | -24.4 | 5.7 | 0.0 |
| O=C(Nc1ccccc1)Nc1ccc2c(c1)[C@@H]1C[C@@H](CC(=O)N3CCOCC3)O[C@H](CO)[C@@H]1O2 | 2.1 | 6.2 | 0.0 | -14.1 | -8.8 | -1.2 |
| CC1=C(C(=O)Nc2ccccn2)C(c2ccccc2Cl)NC(=S)N1 (configuration not stated) | 65.9* | -1.1 | -1.2 | -14.3 | -1.7 | 13.0 |
| CC1=C(C(=O)Nc2ccccn2)C(c2ccc(Cl)cc2)NC(=S)N1 (configuration not stated) | 43.9* | -1.2 | 0.0 | -4.6 | 11.5 | -18.4 |
| CC1=C(C(=O)Nc2ccccn2)C(c2ccc(Cl)cc2Cl)NC(=S)N1 (configuration not stated) | / | / | / | / | -4.8 | / |
| Cc1[nH]c2ccccc2c1C(=O)/C=C/c1ccccc1Cl | / | -9.5 | 0.4 | -13.6 | -6.2 | / |
| Cc1[nH]c2ccccc2c1C(=O)/C=C/c1ccccc1 | 84.2* | -0.5 | / | -7.4 | 70.7* | -21.8 |
| CC(C)Cc1cc(C(=O)NCc2cccs2)no1 | 65.2* | 4.2 | 0.5 | -21.9 | -5.2 | -4.3 |
| CCc1ccc(NC(=O)c2cc(C(C)C)on2)cc1 | -15.9 | -0.8 | / | -36.4 | -4.1 | 13.0 |
| CCCc1cc(C(=O)Nc2ccc(CC)cc2)no1 | 77.2* | 8.3 | -8.5 | -20.8 | 3.3 | 4.1 |
| CCc1ccc(NC(=O)c2cc(C)no2)cc1 | 55.5* | 2.5 | 0.1 | -31.3 | 1.4 | -0.7 |
| CCc1ccc(NC(=O)c2cc(CC(C)C)on2)cc1 | 70.6* | -2.8 | 0.1 | -18.3 | / | -2.4 |
| CC(C)Cc1cc(C(=O)NCc2cccnc2)no1 | 24.1 | 4.2 | -0.8 | -23.3 | -0.4 | -7.0 |
| C[C@@H]1CN([C@@H](C)CO)C(=O)Cc2cc(NC(=O)Nc3ccc4c(c3)OCO4)ccc2O[C@H]1CN(C)C(=O)Nc1ccc(C(F)(F)F)cc1 | 1.7 | -1.2 | -0.4 | 4.3 | 11.3 | -13.2 |
| CNC[C@@H]1OCCCC[C@@H](C)Oc2ccc(NS(=O)(=O)c3ccc(C)cc3)cc2C(=O)N([C@H](C)CO)C[C@H]1C | -2.7 | 0.5 | 0.0 | 16.3 | 1.7 | 11.3 |
| Cc1ccc(S(=O)(=O)N[C@H]2CC[C@H](CCNC(=O)C3CCCC3)O[C@H]2CO)cc1 | 3.6 | -3.0 | 0.4 | 9.4 | -4.0 | 0.2 |
| C[C@H]1CN([C@@H](C)CO)C(=O)c2cc(-c3cccnc3)cnc2O[C@@H]1CN(C)C(=O)Nc1ccccc1 | 4.7 | / | -0.1 | / | 5.1 | 12.3 |
| CN(C)CC(=O)Nc1ccc2c(c1)[C@@H]1C[C@@H](CC(=O)NCc3ccccc3F)O[C@H](CO)[C@@H]1O2 | 1.4 | 3.7 | -0.1 | -10.2 | -1.0 | 0.3 |
| Cc1ccc(NC(=O)c2cc(C)on2)cc1 | 28.0 | / | / | / | -2.3 | -42.9 |
| CC(C)Cc1cc(C(=O)Nc2ccc(F)cc2F)no1 | 78.6* | 0.3 | -0.3 | -4.1 | -0.9 | -5.8 |
| CC(C)Cc1cc(C(=O)Nc2cccc(O)c2)no1 | -27.2 | / | 7.5 | / | 24.0 | 6.0 |
| CC(C)Cc1cc(C(=O)Nc2cc(Cl)ccc2Cl)no1 | 10.7 | 0.7 | 0.1 | -32.6 | -18.5 | 7.0 |
